This is an account of results in patent US5962493A, “2-mercaptobenzimidazole derivatives and antihyperlipemic agent or antiarteriosclerotic agent containing the same” (priority 1997, dated 1999).

The test system of the series is mouse peritoneal macrophage. The conditions noted are these: Table 2; dose 5 μM; microscopic observation.

Take `CN(C)C(=O)n1c(SCCCCCSc2nc3ccccc3n2C(=O)N(C)C)nc2ccccc21`: the Cytotoxicity result was “none”.
